Patent US10626094B2 (La Jolla Institute of Allergy & Immunology, priority 2014, dated 2020)
Read-outs that look alike come from different tables or passages of the source.

Amino acid sequences for entries named in this document (tags omitted).
UniProt P24666, whole entry: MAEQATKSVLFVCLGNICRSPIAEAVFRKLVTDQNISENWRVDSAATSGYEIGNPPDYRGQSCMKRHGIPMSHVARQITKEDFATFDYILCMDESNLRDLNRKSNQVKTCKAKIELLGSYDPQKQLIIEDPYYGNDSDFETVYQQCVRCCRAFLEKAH

Molecular target: LMPTP-A (Low Molecular Weight Protein Tyrosine Phosphatase-A) enzyme (Homo sapiens (Human), UniProt P24666)
Assay: LMPTP primary screening / LMPTP (OMFP) enzyme inhibition assay, fluorescence intensity
Assay type: biochemical
Settings: for LMPTP (OMFP) potency in words: SAR discussion
[1] = read-out: LMPTP (OMFP) (IC50), Table 1 quinazolinone series, CP sample (cherry pick of DMSO solution from NIH MLSMR)
[2] = read-out: LMPTP (OMFP) (IC50), Table 1 quinazolinone series, P sample (purchased from commercial sources)

Row | Compound | IC50 [2] [µM] | also measured
1 | OCC(Nc1nc(-c2ccccc2)nc2ccccc12)c1ccccc1 (centres unmarked) |  | IC50 [1]: 17 µM
2 | O=C(O)c1ccccc1Nc1nc(-c2ccc([N+](=O)[O-])cc2)nc2ccccc12 |  | IC50 [1]: > 80 µM
3 | O=C(OCCNc1nc(-c2ccccc2)nc2ccccc12)c1cccnc1 | 24.2 | 
4 | c1ccc(-c2cc(OCCCN3CCCCC3)c3ccccc3n2)cc1 |  | LMPTP (OMFP) potency in words: inactive
5 | Clc1ccccc1-c1cc(NCCCN2CCCCC2)c2ccccc2n1 |  | IC50 (read-out: LMPTP (OMFP) IC50): 11.2 µM
6 | Fc1ccccc1-c1nc(NCCCN2CCOCC2)c2ccccc2n1 |  | IC50 [1]: 22 µM
7 | c1ccc(-c2cc(N3CCCCC3)c3ccccc3n2)cc1 |  | LMPTP (OMFP) potency in words: less than the screening hit; IC50 (read-out: LMPTP (OMFP) (IC50), Table 2 quinoline series, P sample (purchased from commercial sources)): 11.1 µM

More lines, main results first:

Row | IC50 [2] [µM] | Compound | also measured
8 | 18.1 | CC(C)OCCCNc1nc(-c2ccccc2)nc2ccccc12 | 
9 | 17.8 | c1ccc(-c2nc(NCCCn3ccnc3)c3ccccc3n2)cc1 | 
10 | 12.9 | Cc1ccc(-c2nc(NCc3cccnc3)c3ccccc3n2)cc1 | 
11 | 18.8 | Cc1ccc(-c2nc(NCCN3CCOCC3)c3ccccc3n2)cc1 | 
12 | 20.9 | O=C(OCCNc1nc(-c2ccccc2)nc2ccccc12)c1ccncc1 | 
13 | 19 | c1ccc(-c2nc(NCc3cccnc3)c3ccccc3n2)cc1 | 
